Assay results reported in ChEMBL document CHEMBL1134304, “Discovery of novel p-arylthio cinnamides as antagonists of leukocyte function-associated antigen-1/intercellular adhesion molecule-1 interaction. 4. Structure-activity relationship of substituents on the benzene ring of the cinnamide” (J Med Chem, 2001).

By UniProt entry, the sequences of proteins in these tests, tags left out. Where a name states a change or a piece, a line headed by the entry shows the natural chain unless it says otherwise.
UniProt P05107, whole entry: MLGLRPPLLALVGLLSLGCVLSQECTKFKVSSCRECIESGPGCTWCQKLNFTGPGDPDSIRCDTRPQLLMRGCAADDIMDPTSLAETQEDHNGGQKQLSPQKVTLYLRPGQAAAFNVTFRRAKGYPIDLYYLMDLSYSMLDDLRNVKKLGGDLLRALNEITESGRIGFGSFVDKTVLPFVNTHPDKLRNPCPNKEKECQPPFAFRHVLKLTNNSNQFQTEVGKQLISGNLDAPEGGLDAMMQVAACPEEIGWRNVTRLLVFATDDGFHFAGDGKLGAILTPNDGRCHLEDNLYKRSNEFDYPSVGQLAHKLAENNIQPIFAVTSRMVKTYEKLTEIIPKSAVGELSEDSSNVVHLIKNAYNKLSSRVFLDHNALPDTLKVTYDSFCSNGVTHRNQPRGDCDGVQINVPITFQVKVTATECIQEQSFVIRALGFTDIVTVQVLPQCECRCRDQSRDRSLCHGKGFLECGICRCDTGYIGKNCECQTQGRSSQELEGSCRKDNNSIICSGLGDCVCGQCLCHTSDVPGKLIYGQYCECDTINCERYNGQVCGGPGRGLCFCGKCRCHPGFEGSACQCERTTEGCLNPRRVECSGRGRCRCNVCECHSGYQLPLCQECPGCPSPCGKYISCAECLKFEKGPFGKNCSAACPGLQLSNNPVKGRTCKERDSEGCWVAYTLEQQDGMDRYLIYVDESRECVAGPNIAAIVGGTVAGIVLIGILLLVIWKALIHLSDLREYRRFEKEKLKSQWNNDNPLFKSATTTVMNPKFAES
UniProt P20701: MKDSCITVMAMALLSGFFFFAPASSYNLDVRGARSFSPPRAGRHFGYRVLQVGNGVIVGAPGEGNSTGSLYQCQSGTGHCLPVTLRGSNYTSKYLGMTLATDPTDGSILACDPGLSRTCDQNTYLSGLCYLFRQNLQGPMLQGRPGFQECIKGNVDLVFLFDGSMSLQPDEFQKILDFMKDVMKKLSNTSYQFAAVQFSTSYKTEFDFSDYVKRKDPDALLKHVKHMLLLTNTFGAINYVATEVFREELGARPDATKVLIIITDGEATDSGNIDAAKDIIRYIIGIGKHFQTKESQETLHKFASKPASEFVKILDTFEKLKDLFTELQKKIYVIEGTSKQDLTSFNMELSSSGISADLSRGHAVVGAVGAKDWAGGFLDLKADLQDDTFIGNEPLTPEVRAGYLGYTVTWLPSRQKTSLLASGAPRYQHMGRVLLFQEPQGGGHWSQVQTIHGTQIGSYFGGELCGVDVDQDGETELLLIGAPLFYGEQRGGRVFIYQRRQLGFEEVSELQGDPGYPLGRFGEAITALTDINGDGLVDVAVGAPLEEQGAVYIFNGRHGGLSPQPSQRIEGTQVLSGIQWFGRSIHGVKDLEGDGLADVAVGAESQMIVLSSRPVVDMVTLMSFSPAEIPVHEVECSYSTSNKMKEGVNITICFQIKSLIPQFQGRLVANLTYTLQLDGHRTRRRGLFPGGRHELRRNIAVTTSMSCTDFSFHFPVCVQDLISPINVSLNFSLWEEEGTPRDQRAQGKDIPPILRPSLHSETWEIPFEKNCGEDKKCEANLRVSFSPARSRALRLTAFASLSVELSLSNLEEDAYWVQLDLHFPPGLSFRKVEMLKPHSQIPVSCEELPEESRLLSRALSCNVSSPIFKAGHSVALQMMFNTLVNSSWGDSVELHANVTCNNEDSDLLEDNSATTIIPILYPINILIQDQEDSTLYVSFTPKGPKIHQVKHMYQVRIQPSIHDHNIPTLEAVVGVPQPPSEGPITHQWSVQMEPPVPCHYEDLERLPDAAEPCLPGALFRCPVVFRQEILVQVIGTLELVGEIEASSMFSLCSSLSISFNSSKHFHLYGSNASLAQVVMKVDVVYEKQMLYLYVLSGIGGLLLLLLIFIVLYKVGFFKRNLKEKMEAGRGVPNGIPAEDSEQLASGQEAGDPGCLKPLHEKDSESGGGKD

Target: Intercellular adhesion molecule (ICAM-1), Integrin alpha-L/beta-2 (Homo sapiens, UniProt P05107+P20701)

CC(=O)N1CCN(C(=O)/C=C/c2ccc(Sc3ccccc3C(C)C)c([N+](=O)[O-])c2)CC1 [A-286982]
IC50: 30 nM
